# Screens: PubChem, Broad Institute
# This is a sample that favours compounds with a hit; in the whole collection about 2.2% have one here.
# SIRT5 block = SIRT5 desuccinylase inhibitors, primary screen, biochemical, fluorescence imaging, single point, set 5; Purified SirT5, succinyl-peptide AMC, trypsin-coupled fluorescence; inhibition, % at 15 µM; hit rate 1.1% among 330,000; in the data active means inhibition above about 15%
# FGF22 binding-1 = binders of human FGF22 protein, primary screen, FGF22 synaptogenesis inhibitor project, biophysical, thermal shift, single point; activity (Tm shift, normalised), % at 9.99 µM; recombinant FGF22 thermal shift, SYPRO orange fluorescence; percent of sucrose octasulfate shift, DMSO zero; hit rate 1.5% among 340,000; Fibroblast growth factor 22 (Homo sapiens), Q9HCT0;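 active means mean Tm shift, scaled 0 neutral to 100 positive control, at about 1.3% or above, every replicate too, limit read from the data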
# ERp5 inh = inhibitors of ERp5-driven insulin aggregation, primary screen, biochemical, turbidity, absorbance 650 nm, single point; 90 min; inhibition, % at 9.99 µM; hit rate 0.05% among 350,000; AID 651711, 2012;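 active means mean replicate inhibition above about 25%, with every replicate also reaching it, limit read from the data, passing the limit was not always enough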
# S100A4 MyoIIA = inhibitors of S100A4-myosin IIA peptide binding, primary screen, biochemical, fluorescence polarization, TAMRA-MyoIIA peptide; Protein S100-A4 (Homo sapiens), P26447; hit rate 0.14% among 360,000; inhibition, % at 10.7 µM; AID 652163, 2013;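 active means mean inhibition of at least 70% across replicates, with every replicate also reaching that level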
#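 incubation = readout 5 min after mixing, signal stable up to 60 min | system = S100A4 monomer protein | buffer or medium = HEPES pH 7.2 with CaCl2, KCl, NaCl, DTT, Triton | benchmarks = neutral control DMSO, positive control TFP | also added = fluorescent myosin IIA peptide, 5 nM | compound dosing = one concentration per compound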
# PDI inh = inhibitors of human PDI, primary screen, biochemical, turbidity, single point, plate reader | Protein disulfide-isomerase (Homo sapiens), P07237 | PDI insulin aggregation turbidity, A650, 90 min | inhibition, % at 10 µM | hit rate 0.052% among 350,000;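 active means mean inhibition across replicates of 30% or more, whatever share of single replicates reach that level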
# Yeast UUG start-1 = alters start codon recognition fidelity in yeast; AID 602363; activity score, % at 18.7 µM; 350,000 tested, 0.13% active; S. cerevisiae UUG-firefly luciferase reporter, luminescence/redox ratio;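 active means replicate mean at a twofold rise or more, about +100% in these data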;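 further: firefly luciferase made from a UUG start codon reports start codon fidelity; reporter light over untreated wells divided by growth signal over untreated wells; some hits fall short of that in this replicate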
# Yeast UUG start-2 = enhancers of UUG start codon usage in yeast, dose response, S. cerevisiae, UUG firefly luciferase, cherry-pick, set 2; shares compounds with Yeast UUG start-1; AID 652061, 2013; 540 tested, under 10 active; luminescence, 4 h; 100% means double the DMSO signal; activation, % at 38 µM;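 active means signal increase whose fitted curve reaches an absolute level of 40 at a concentration under 10 µM; inactive means activity opposite to the expected increase, or the rest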
# FGF22 binding-2 = binders of human FGF22 protein, dose response, FGF22 synaptogenesis inhibitor project, biophysical, thermal shift, cherry-pick retest | thermal shift activity, °C (ΔTm) at 38 µM | hit rate 2% among 1,000 | shares compounds with FGF22 binding-1 | recombinant FGF22 thermal shift, SYPRO orange fluorescence;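 active means fitted rise in melting shift crosses a set limit at or below the top valid dose tested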
# TSA no protein = compound-only thermal shift signal without protein, dose response, artefact control for FGF22 binder project, biochemical, cherry-picked samples, RT-PCR instrument; AC50, µM (top dose mostly 38 µM); compound-only SYPRO orange thermal shift counter-screen, no protein; AID 743019, 2013; shares compounds with FGF22 binding-1; hit rate 2% among 1,000;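 active means rising signal whose fitted curve reaches the 0.54 level within the top valid dose, showing a melting point, actives reach about 13 µM in these data; inactive means the rest, including activity in the opposite direction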; further: value is where the raw curve crosses a fixed level and not half-maximal
# An asterisk follows results filed as active; i = inactive; · = not tested or not shown.
SMILES,SIRT5 block,FGF22 binding-1,ERp5 inh,S100A4 MyoIIA,PDI inh,Yeast UUG start-1,Yeast UUG start-2,others
CC1Sc2ccc(C(=O)N(CCc3ccccc3)Cc3ccccc3)cc2NC1=O (stereo not drawn),-0.9,-1.1,4.4,-2.5,0.6,102.9*,17.6,
CC1Sc2ccc(C(=O)O)cc2NC1=O (stereo not drawn),·,·,·,·,-4.4,-17.5,·,
CCC(=O)N1CCC2(CC1)CN(C(=O)c1cnccn1)[C@H](CO)c1c2c2ccc(OC)cc2n1C,1.6,-0.3,-2.4,-0.4,·,·,·,
CC(C)(C)C(=O)COC(=O)c1ccc(O)cc1,·,·,·,·,22.9,387.0*,20.1,
Cc1cc(-n2c(C)cc(C(=O)CSc3nc(N)cc(=O)[nH]3)c2C)no1,-2.0,-0.1,0.1,-4.9,0.5,-8.5,4.9,
CCCc1cc(=O)[nH]c(SCC(=O)c2cc(C)n(C)c2C)n1,·,·,·,·,-8.7,-22.4,·,
CCCc1cc(=O)[nH]c(SCC(=O)c2cc(C)n(-c3cc(C)on3)c2C)n1,-5.7,0.3,5.0,-2.2,5.4,·,-1.9,
Cc1cc(C(=O)CSc2nc(N)cc(=O)[nH]2)c(C)n1-c1ccc(OC(F)F)cc1,2.1,0.0,0.2,2.5,-5.0,-14.5,·,
COc1ccccc1NC(=O)N1CC(=O)N2[C@H](CO)[C@@H](c3ccc(-c4cccc(C)c4)cc3)[C@@H]2C1,2.4,·,-2.7,-7.5,·,·,·,
Cc1cc[n+](C2=C([O-])c3ccccc3C(=O)/C2=N\S(=O)(=O)c2cccs2)cc1C,-0.7,-0.3,1.4,3.1,-70.3,446.3*,0.0,
COc1ccc(NC(=O)Nc2ccc3c(c2)C(=O)N([C@@H](C)CO)C[C@H](C)[C@H](CN(C)Cc2ccc(Cl)c(Cl)c2)OCCCC[C@@H](C)O3)cc1,7.1,-0.6,-8.1,-8.5,·,8.7,·,
O=C(O)Cc1csc(NC(=O)c2ccco2)n1,·,·,·,·,-4.1,373.0*,10.2,
C[C@H]1CN([C@@H](C)CO)C(=O)Cc2cc(NS(=O)(=O)c3ccccc3)ccc2O[C@H]1CN(C)C(=O)Nc1cccc2ccccc12,6.9,-0.2,0.7,10.2,·,4.3,·,
Cc1ccccc1-n1c(SCC(=O)N(C)C2CCS(=O)(=O)C2)nnc1-c1ccncc1 (stereo not drawn),1.2,41.5,0.0,1.7,-1.6,-17.2,·,
Cc1ccccc1-n1c(SCC(=O)c2cc(C)n(C)c2C)nnc1-c1ccncc1,·,·,·,·,1.1,-18.0,10.4,
CC(C)N(C[C@H]1[C@H](c2ccccc2)[C@@H](CO)N1S(C)(=O)=O)C(=O)CN(C)C,·,1.2*,4.6,3.0,·,163.7*,i,FGF22 binding-2=0.088;TSA no protein=i
CCS(=O)(=O)NCC[C@H]1CC[C@H](NC(=O)C2CCCC2)[C@@H](CO)O1,-2.1,-0.2,3.1,-0.3,·,-1.9,·,
Cc1cccc(NC(=O)c2ccc(S(=O)(=O)NCc3cccnc3)cc2)c1C,1.5,0.0,8.4,-13.2,10.8,-16.6,·,
Cc1ccc(NC(=O)c2ccc(S(=O)(=O)NCc3cccnc3)cc2)c(C)c1,-1.6,1.6*,-1.2,11.8,-4.5,-10.6,·,FGF22 binding-2=0.067;TSA no protein=i
Cc1ccc(S(=O)(=O)NCc2cccnc2)cc1C,-5.4,3.2*,1.1,-2.9,1.3,-13.6,·,FGF22 binding-2=0.118;TSA no protein=i

# Three entries drawn at random from those above:
SMILES,SIRT5 block,FGF22 binding-1,ERp5 inh,S100A4 MyoIIA,PDI inh,Yeast UUG start-1,Yeast UUG start-2,others
Cc1cc(C(=O)CSc2nc(N)cc(=O)[nH]2)c(C)n1-c1ccc(OC(F)F)cc1,2.1,0.0,0.2,2.5,-5.0,-14.5,·,
Cc1ccc(S(=O)(=O)NCc2cccnc2)cc1C,-5.4,3.2*,1.1,-2.9,1.3,-13.6,·,FGF22 binding-2=0.118;TSA no protein=i
CCC(=O)N1CCC2(CC1)CN(C(=O)c1cnccn1)[C@H](CO)c1c2c2ccc(OC)cc2n1C,1.6,-0.3,-2.4,-0.4,·,·,·,
